Among the data in PMC7284125, “Identification of annotated bioactive molecules that impair motility of the blood fluke Schistosoma mansoni” (International Journal for Parasitology: Drugs and Drug …, 2020) are EC50 and inhibition values, retold here.

Amino acid sequences for entries named in this document (tags omitted).
UniProt G4V5G4, entry or part of it: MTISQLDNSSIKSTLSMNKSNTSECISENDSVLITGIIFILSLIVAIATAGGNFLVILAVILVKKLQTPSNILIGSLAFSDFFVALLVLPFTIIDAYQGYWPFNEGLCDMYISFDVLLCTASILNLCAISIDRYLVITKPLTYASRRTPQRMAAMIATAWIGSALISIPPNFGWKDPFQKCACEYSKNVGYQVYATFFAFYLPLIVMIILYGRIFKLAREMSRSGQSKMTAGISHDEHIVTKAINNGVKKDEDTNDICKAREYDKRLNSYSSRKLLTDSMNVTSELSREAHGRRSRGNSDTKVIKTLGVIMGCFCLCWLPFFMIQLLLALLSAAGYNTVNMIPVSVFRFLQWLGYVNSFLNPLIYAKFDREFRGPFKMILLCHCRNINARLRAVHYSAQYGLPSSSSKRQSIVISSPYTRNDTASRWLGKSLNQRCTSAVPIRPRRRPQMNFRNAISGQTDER
UniProt G4LUJ1, entry or part of it: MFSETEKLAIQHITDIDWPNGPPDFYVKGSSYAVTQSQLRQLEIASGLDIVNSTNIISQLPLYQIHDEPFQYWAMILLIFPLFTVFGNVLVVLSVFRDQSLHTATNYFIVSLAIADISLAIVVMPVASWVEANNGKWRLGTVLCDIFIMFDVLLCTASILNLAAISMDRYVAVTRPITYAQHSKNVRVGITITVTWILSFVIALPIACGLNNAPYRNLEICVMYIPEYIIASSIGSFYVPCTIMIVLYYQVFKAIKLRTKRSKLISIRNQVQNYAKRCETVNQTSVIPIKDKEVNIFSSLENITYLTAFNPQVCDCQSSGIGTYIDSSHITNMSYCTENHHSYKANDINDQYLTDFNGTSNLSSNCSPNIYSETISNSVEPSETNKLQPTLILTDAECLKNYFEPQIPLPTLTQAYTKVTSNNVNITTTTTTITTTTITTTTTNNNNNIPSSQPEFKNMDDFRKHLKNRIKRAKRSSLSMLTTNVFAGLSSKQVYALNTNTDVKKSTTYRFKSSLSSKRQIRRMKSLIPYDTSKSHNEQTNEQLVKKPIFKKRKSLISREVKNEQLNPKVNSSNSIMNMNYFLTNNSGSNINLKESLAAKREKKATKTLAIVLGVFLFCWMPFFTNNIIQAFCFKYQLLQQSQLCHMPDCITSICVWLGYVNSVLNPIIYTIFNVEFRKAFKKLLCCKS

One experiment deals with Sm5HTR (Schistosoma mansoni, UniProt G4V5G4). In words: cAMP luminescence (GloSensor) assay, HEK293 cells expressing Sm5HTR. As to conditions: luminescent cAMP signal, agonist. The format is cell-based, S. mansoni.
For a further experiment, the target named is SmD2 (Schistosoma mansoni, UniProt G4LUJ1). In words: cell-based. As to conditions: HEK293, read-out: inhibition of EPN-evoked luminescence.

As for `NCCc1c[nH]c2ccc(O)cc12` [5-HT, serotonin], the EC50 at Sm5HTR came to 1460 ± 130 nM.

On to `O=C1CCc2ccc(OCCCCN3CCN(c4cccc(Cl)c4Cl)CC3)cc2N1` [Aripiprazole], for which, at SmD2, the inhibition at 10 µM was no less than 50%.

What is called EC50 is the midpoint of the concentration-response curve. Usually inhibition stands for the share of the control response that was lost under treatment.
